These are literature values, as cited in patent US4246194A, “Amino-hydroxy-alkyl sulfonic acid-zwitterions” (priority 1979, dated 1981).

The conditions of the data set: cited from earlier work.

Take phosphate: the buffering capacity entry (above pH 7.5) is “poor buffering capacity”. The “precipitation of polyvalent cations” value (in many systems) was “tends to precipitate most polyvalent cations”.
